Measured affinities in a library of Ab-14 heavy chain variants

Data: MIT Lincoln Laboratory AlphaSeq set, Li et al. 2023, doi:10.1038/s41467-023-39022-2, as distributed in FLAb.

All variants were tested on one target, the spike HR2 peptide PDVDLGDISGINAS (SARS-CoV-2).

Each scFv is VH, three GGGGS repeats, VL, as in the parent Ab-14, and differs from it in the CDRs of the heavy chain only.
VH: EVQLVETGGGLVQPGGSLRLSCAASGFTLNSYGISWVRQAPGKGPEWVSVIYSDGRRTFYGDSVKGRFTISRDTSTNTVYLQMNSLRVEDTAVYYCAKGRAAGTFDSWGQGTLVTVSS
VL: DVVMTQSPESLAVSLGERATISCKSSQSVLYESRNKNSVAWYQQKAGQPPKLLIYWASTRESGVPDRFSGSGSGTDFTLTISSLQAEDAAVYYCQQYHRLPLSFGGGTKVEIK

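Phage display of a naive human antibody library on the peptide gave the parent. Designed CDR sequences, proposed from the first random library and measured here. Their group label is 14H_GP_HC (GP: Gaussian process model; HC: hill climbing; a sequence that several methods proposed may carry one label only). The assay is AlphaSeq: two haploid yeast populations carry antibody and antigen on their surface. Pairs that bind mate more often; barcode pairs of the diploids are counted by sequencing. Read counts were normalised to the haploid input and turned into Kd by a linear fit to BCL2-family pairs of known affinity, for each replicate. There are six technical replicates.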

The parent's heavy chain CDRs are GFTLNSYGIS, VIYSDGRRTFYGDSVK, GRAAGTFDS; each variant's own CDRs replace them letter for letter.
Numbers give log10(Kd / nM), so 0 is 1 nM and 3 is 1 µM. Smaller is tighter.
A mean of the replicates is given; it leaves out those without a signal.
"ND" means that the variant was in the library but no mating with the target was seen in that replicate; the authors take this as a sign of poor binding, and no number exists.
Of ten entries with the parent sequence, four were seen in most replicates (averages 0.34 to 2.37), three in one and three in none, so single entries are noisy.
The range of this assay differs from that of the first round, and the authors advise against merging the two.
The authors' rule: three or more of the six replicates give a measured affinity, fewer mean a poor binder.
Three control strains display no target. For all heavy chain designs, 1% of the pairings with them gave a signal, with a median of 2.08 and one signal in twenty below 0.84, so weak values seen in few replicates may be background. The control count says in how many pairings with the empty strains this scFv gave a signal.

The variant GFTLNSYGIS, VIYSDGRRTFYSDSVK, GVSAGTFDS showed 2.06, 1.72, 1.50, 1.88, 1.90, 2.70 (mean 1.96; controls 0 of 18).
The variant GFSLNEYGIS, VIYSDGRRTFYGDSVK, GRAAVTFDC showed ND, ND, ND, ND, 1.82, ND (controls 0 of 18).
The variant GCSLNDYGIS, VIYSDGRRTMYIDSVK, GRAAGTFDS showed ND, ND, ND, ND, ND, ND (controls 0 of 18).
The variant LFQLNEYGIS, VIYSDGRRTFYRDSVK, GRTAGTFDS showed 1.51, 0.67, 1.44, 0.95, 1.36, 1.46 (mean 1.23; controls 1 of 18).
The variant GFTLNEYGIS, VIYSDGRRTFYSDSVK, GQPAGTFDS showed 0.12, -0.06, 0.00, -0.20, -0.11, 0.13 (mean -0.02; controls 1 of 18).
The variant GFHLNSYGIS, VIYSDGRRTFYDDSVK, GTLAGTFDS showed 0.64, 0.24, -0.05, 0.50, 1.75, 0.63 (mean 0.62; controls 0 of 18).
The variant GFSLNSYGIS, VIYSDGRRTAYHDSVK, GRAGGTFDS showed ND, ND, ND, ND, ND, ND (controls 0 of 18).
The variant GFSLNEYGIS, VIYSDGRRTFYTDSVK, GEQAGTFDS showed 0.36, 0.14, 0.23, -0.08, 0.19, 0.38 (mean 0.20; controls 0 of 18).
The variant GFELNSYGIS, VIYADGRRTFYGDSVK, GRAAGTNKS showed ND, ND, ND, 2.86, 3.48, ND (mean 3.17; controls 0 of 18).
The variant GFTLNEYGIS, VIYSDGRRTFYSDSVK, GRDAGTFDS showed 0.54, 0.76, 0.27, 0.45, 0.14, 0.42 (mean 0.43; controls 0 of 18).
The variant GFLLNDYGIS, VIYSDGRRTFYKDSVK, GRTAGTFDS showed 0.16, -0.28, 1.01, 0.26, 0.54, 0.03 (mean 0.29; controls 0 of 18).
The variant GFDLNSYGIS, VIYSDGRRTFYSDSVK, GNAGGTFDS showed 1.19, 1.43, 1.10, 0.79, 1.09, 0.96 (mean 1.09; controls 0 of 18).
The variant GFTLNSYGIS, VIYSDGRRTFYGDSVK, GRAAGTFTV showed ND, ND, ND, ND, ND, ND (controls 0 of 18).
The variant GFTLNEYGIS, VIYSDGRRTFYSDSVK, GFAAGTFDS showed 0.52, 0.18, 0.11, 0.03, 0.32, 0.40 (mean 0.26; controls 0 of 18).
The variant KFDLNEYGIS, VIYSDGRRTFYGDSVK, GRCAGTFDS showed ND, ND, 1.57, ND, ND, ND (controls 0 of 18).
The variant GFILNSYGIS, VIYSDGRRTFYDDSVK, GKLAGTFDS showed 1.83, 1.56, 1.74, 0.76, 0.75, 1.76 (mean 1.40; controls 0 of 18).
The variant GFTLNEYGIS, VIYSDGRRTFYHDSVK, GRAAGFFDS showed ND, ND, ND, ND, ND, 1.98 (controls 0 of 18).
The variant GFSLNEYGIS, VIYSDGRRTFYCDSVK, GRAAVTFDK showed ND, ND, ND, ND, ND, ND (controls 0 of 18).
The variant GNSLNEYGIS, VIYSDGRRTFYTDSVK, GRTAGTFDS showed 2.02, 2.14, ND, 2.94, ND, ND (mean 2.37; controls 0 of 18).
The variant GFTLNEYGIS, VIYSDGRRTFYGDSVK, GRASVTFDM showed ND, ND, ND, ND, ND, ND (controls 0 of 18).
The variant GFTLNDYGIS, VIYSDGRRTWYGDSVK, GRAAGTFDT showed ND, 2.02, 1.67, 0.54, 2.04, 1.40 (mean 1.53; controls 0 of 18).
The variant GFDLNSYGIS, VIYSDGRRTFYQDSVK, GRAAGHFDS showed ND, ND, ND, 2.72, ND, ND (controls 0 of 18).
The variant GFTLNMYGIS, VIYSDGTRTFYSDSVK, GRAAGTFDS showed 0.86, 0.89, 0.96, 0.63, 0.43, 0.65 (mean 0.74; controls 0 of 18).
The variant GFTLNEYGIS, VIYSDGRRTFYGDSVK, GRAAVTFGI showed ND, ND, ND, ND, ND, ND (controls 0 of 18).
The variant GFELNDYGIS, VIYSDGRRTFYGDSVK, GRMAGTFDS showed 0.01, -0.14, 0.12, 0.31, 0.24, 0.36 (mean 0.15; controls 0 of 18).
The variant GFTLNSYGIS, VIYSDGRRTFYSDSVK, GRMGGTFDT showed 1.01, 0.99, 0.56, 0.88, 0.53, 0.51 (mean 0.75; controls 0 of 18).
The variant GFTLNSYGIS, VIYSDGRRTFYAWSVK, GQLAGTFDS showed ND, ND, ND, ND, ND, ND (controls 0 of 18).
The variant GFSLNDYGIS, VIYSDGRRTFYGDSVK, GRAAWTFDS showed ND, ND, ND, ND, ND, ND (controls 0 of 18).
The variant GFPLNSYGIS, VIYSDGRRTFYADSVK, GMLAGTFDS showed ND, ND, ND, ND, ND, ND (controls 0 of 18).
The variant GFDLNSYGIS, VIYSDGRRTFYGDSVK, GRGAGTFES showed ND, ND, ND, ND, ND, ND (controls 0 of 18).
The variant GFTLNSYGIS, VIYSDGRRTFYADDVK, GEAAGTFKS showed 2.99, 2.64, 2.39, 2.95, 2.54, 2.37 (mean 2.65; controls 0 of 18).
The variant GFTLNEYGIS, VIYSDGFRTFYGDSVK, GRAAGTFDQ showed 1.04, 1.65, ND, 1.82, ND, 1.39 (mean 1.47; controls 0 of 18).
The variant GFSLNSYGIS, VIYSDGRRTFYDDSVK, GSLAGTFDS showed 0.10, -0.09, -0.23, -0.33, -0.13, 0.00 (mean -0.11; controls 0 of 18).
The variant GCSLNEYGIS, VIYSDGRRTFYGDSVK, GRAAVTFDQ showed ND, ND, ND, ND, ND, ND (controls 0 of 18).

The 5 strongest on average among those seen in every replicate, once more:

{"CDR-H1": "GFSLNSYGIS", "CDR-H2": "VIYSDGRRTFYDDSVK", "CDR-H3": "GSLAGTFDS", "replicates, log10 nM": "0.10, -0.09, -0.23, -0.33, -0.13, 0.00", "mean, log10 nM": "-0.11", "empty controls": "0 of 18"}
{"CDR-H1": "GFTLNEYGIS", "CDR-H2": "VIYSDGRRTFYSDSVK", "CDR-H3": "GQPAGTFDS", "replicates, log10 nM": "0.12, -0.06, 0.00, -0.20, -0.11, 0.13", "mean, log10 nM": "-0.02", "empty controls": "1 of 18"}
{"CDR-H1": "GFELNDYGIS", "CDR-H2": "VIYSDGRRTFYGDSVK", "CDR-H3": "GRMAGTFDS", "replicates, log10 nM": "0.01, -0.14, 0.12, 0.31, 0.24, 0.36", "mean, log10 nM": "0.15", "empty controls": "0 of 18"}
{"CDR-H1": "GFSLNEYGIS", "CDR-H2": "VIYSDGRRTFYTDSVK", "CDR-H3": "GEQAGTFDS", "replicates, log10 nM": "0.36, 0.14, 0.23, -0.08, 0.19, 0.38", "mean, log10 nM": "0.20", "empty controls": "0 of 18"}
{"CDR-H1": "GFTLNEYGIS", "CDR-H2": "VIYSDGRRTFYSDSVK", "CDR-H3": "GFAAGTFDS", "replicates, log10 nM": "0.52, 0.18, 0.11, 0.03, 0.32, 0.40", "mean, log10 nM": "0.26", "empty controls": "0 of 18"}